# Measurements published in PubChem BioAssay AID2014 (Sanford-Burnham Center for Chemical Genomics, 2009).
# By UniProt entry, the sequences of proteins in these tests, tags left out.
# UniProt P11940, whole entry, looked up: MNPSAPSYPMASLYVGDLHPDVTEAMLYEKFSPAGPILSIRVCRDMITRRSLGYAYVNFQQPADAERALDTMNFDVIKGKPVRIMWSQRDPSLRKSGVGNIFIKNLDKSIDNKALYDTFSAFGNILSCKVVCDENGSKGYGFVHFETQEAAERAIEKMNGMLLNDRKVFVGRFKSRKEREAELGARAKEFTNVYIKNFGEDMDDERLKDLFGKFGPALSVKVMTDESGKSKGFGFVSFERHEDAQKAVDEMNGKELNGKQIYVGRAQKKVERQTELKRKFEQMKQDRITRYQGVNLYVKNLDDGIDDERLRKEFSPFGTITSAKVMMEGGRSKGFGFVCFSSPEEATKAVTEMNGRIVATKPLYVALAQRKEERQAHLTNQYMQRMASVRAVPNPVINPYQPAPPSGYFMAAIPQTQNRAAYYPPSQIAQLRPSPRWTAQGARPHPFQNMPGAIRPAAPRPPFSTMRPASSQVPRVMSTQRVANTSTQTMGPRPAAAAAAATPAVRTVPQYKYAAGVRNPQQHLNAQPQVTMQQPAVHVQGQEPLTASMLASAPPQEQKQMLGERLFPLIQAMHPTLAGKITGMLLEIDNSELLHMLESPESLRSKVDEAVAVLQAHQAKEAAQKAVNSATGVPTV
# Only a part is listed here, and it is no random draw. Active and inactive are the calls of the source. The rule behind the calls is not given here.
# Molecular target: Polyadenylate-binding protein 1 (Homo sapiens) (UniProt P11940)
# Assay: blockers of PABP interaction with poly(A) – biochemical, fluorescence polarization, uHTS, primary screen (AID 2014);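 note: calls also rest on retests at 20 µM and on dose response follow-up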
# Details: PABP-poly(A) RNA binding, at 35 µM, active compounds read high
row,Compound,inhibition
1,CS(=O)(=O)c1cc([N+](=O)[O-])c2no[n+]([O-])c2c1,active: 41.2%
2,CCOC(=O)Nc1ccc([As](=O)(O)O)c(O)c1,active: 30.2%
3,O=[N+]([O-])c1cc([N+](=O)[O-])c(CCN2CCOCC2)c([N+](=O)[O-])c1,active: 44.1%
4,C[N+]1=C2C=CC=CC=C2SC12C([N+](=O)[O-])=CC([N+](=O)[O-])=C[C-]2[N+](=O)[O-] (stereo not given),active: 76.6%
5,CC(=O)NC(SC(=S)N(C)C)C(Cl)(Cl)Cl (stereo not given),active: 118%
